Amino acid sequences for entries named in this document (tags omitted).
UniProt P21397, whole entry: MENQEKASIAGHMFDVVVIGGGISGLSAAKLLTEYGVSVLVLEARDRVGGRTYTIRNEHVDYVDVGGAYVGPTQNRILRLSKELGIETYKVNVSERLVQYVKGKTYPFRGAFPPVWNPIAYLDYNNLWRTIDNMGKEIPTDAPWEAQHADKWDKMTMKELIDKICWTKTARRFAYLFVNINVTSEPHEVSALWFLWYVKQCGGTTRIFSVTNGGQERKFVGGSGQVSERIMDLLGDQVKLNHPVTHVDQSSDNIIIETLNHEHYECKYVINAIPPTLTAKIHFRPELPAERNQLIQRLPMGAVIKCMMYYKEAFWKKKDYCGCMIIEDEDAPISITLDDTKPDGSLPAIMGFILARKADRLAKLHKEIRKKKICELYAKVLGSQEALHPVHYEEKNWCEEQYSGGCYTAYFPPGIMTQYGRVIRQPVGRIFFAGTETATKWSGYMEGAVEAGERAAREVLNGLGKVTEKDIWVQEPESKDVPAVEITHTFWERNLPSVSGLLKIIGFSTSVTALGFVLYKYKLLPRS

According to article PMC11926787 (ACS Chemical Neuroscience, 2025):

Molecular target: human MAO-A (Homo sapiens, UniProt P21397)
Experiment: MAO-Glo bioluminescent enzymatic assay, MAO-A
Assay type: biochemical
Conditions: summary column of Tables 3 and 4

MAO-A inhibition (yes/no): yes
SMILES: C#CCN(C)CCCOc1ccc(Cl)cc1Cl [clorgyline]
